Experimental data taken from patent US8071581B2.

Chains of the proteins cited; added tags and fusions are not shown. Residues count along the entry.
UniProt P08581, 1078-1345 limits assumed: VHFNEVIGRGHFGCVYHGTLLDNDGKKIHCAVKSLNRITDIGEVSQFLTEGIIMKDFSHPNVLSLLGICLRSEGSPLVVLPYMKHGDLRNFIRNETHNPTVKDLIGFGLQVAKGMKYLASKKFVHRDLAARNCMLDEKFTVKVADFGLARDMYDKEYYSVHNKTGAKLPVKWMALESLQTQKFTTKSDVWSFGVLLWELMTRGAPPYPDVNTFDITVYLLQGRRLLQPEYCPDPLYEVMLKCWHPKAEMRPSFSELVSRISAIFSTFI

Key:
[1] = target: MET kinase (c-MET), kinase domain of human Met (Homo sapiens, UniProt P08581); experiment: MET luminescence-based enzyme assay (Kinase-Glo); conditions: read-out: c-MET IC50; Table 1
GTL16 = GTL16 cell assay (EC50); type: cell-based; conditions: read-out: GTL16 EC50; Table 1

Question: For `CCNC(=O)c1ccc(-c2ccc3nnc(Cc4cc5cccnc5cc4C)n3n2)cc1F`, which IC50 [1] is on record?
Answer: Its IC50 is < 100 nM.

Question: And the EC50 (GTL16)?
Answer: The EC50 was < 100 nM.
